The results in this text go back to patent US20250320206A1, “STAT6 DEGRADERS” (Gilead Sciences, Inc., priority 2024, published 2025).

The chains behind the UniProt entries cited, without tags or fusion partners.
UniProt P42226, whole entry: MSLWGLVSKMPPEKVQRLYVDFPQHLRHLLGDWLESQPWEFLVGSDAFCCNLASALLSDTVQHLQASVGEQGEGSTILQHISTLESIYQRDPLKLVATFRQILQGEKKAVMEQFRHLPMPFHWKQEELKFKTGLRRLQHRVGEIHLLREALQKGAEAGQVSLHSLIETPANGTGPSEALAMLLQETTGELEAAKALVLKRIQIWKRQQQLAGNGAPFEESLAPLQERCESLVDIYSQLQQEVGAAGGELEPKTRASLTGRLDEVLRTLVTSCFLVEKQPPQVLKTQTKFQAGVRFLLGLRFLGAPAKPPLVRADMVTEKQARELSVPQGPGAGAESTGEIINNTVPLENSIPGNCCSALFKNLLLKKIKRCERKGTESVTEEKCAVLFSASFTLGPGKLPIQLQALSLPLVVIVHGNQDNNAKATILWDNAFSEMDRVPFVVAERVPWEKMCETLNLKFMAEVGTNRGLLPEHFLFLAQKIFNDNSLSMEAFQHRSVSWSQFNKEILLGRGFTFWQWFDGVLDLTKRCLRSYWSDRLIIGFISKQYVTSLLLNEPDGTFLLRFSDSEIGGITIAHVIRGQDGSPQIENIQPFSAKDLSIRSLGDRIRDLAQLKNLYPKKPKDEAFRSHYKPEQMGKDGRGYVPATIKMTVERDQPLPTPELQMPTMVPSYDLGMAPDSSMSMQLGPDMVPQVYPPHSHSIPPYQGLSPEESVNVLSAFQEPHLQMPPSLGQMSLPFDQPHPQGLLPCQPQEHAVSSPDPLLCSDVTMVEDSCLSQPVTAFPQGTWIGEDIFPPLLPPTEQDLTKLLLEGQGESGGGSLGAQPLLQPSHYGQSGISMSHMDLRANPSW

One assay deals with STAT6 (Homo sapiens, UniProt P42226). Kind of assay: Stat6 Degrader Assay (HiBiT based, HeLa LgBiT clone 4.14). Conditions: read-out: STAT6 degradation DC50; HeLa LgBiT clone 4.14 HiBiT-STAT6, 4-24 h incubation; values given for compounds with >80% Emax; geometric mean. The protocol: This was a HiBit based assay. A HeLa cell line stably transfected with a small protein, LgBit (Large Bit) was obtained from Promega. These cells express endogenous STAT6. A small 11 amino acid gene sequence (HiBiT) was inserted in the STAT6 gene using CRISPR technology. Once STAT6 protein is expressed in the cells, the HiBiT sequence will bind the LgBit in the cells resulting in a functional NanoBiT protein, giving a luminescent tag to STAT6, see FIG. 2.
Single cell clones were prepared and the clone 4.14 was selected for the assay based on that clone showing high luminescence, high STAT6 phosphorylation upon stimulation with IL-4, and inhibition of luminescence when cells were treated with STAT6 siRNA.
HeLa LgBiT clone 4.14 cells were suspended in DMEM with 10% FCS, 1% Pen/Strep, Na-pyrovate and Hygromycin B, at a concentration of 1.25*105 cells pr mL. 5000 cells were added pr well of a 384 well plate and 20 nL of compound was added by Echo® liquid handler. NN6394A (terfenadine, a toxic compound) was added to control wells at 50 μM concentration to establish the assay window. In these wells the cells are dead which equals 100% degradation of STAT6.
After 4-24 h of incubation at 37° C. under 5% CO2/95% air, 5 μL substrate (Nano-GLO®) was added to the wells and the plates were centrifuged and incubated for 0.5 h.
The luminescence in the wells as a measure of non-degraded STAT6 was measured in a plate reader (BMG Pherastar FSX).
The dose-response curves for Examples 3u208, 3u246, 3u118, 3u119, 3u120, and 3u74 are shown in FIG. 1 (where percent degradation is plotted vs. test compound concentration in M on a log-scale).

Assay [1] deals with Eotaxin-3 release in human whole blood stimulated with IL-4. Briefly: Human Whole Blood Eotaxin-3 Assay (IL-4 stimulated eotaxin-3 release). Conditions: read-out: Eotaxin-3 EC50, IL-4 stimulation, 48 h, values given for compounds with >80% Emax, geometric mean. The procedure: Human Whole Blood Eotaxin-3 Assay
This was a human whole blood assay using recombinant human Interleukin 4 to stimulate the blood and measuring the ability of the test compounds to inhibit eotaxin-3 release. The biological activities of the test compounds have been tested in human whole blood stimulated with IL-4 measuring Eotaxin-3 release. The test compounds were added to 384 well clear flat-bottom plate in a 4-fold serial dilution in triplicates using a liquid handler. Human whole blood stabilized in lithium-heparin tubes was added in a volume of 65 μL per well, resulting in a final DMSO concentration of 0.5%. The plate is incubated for 2 h at 37° C. under 5% CO2/95% air. Subsequently, 5 μL of recombinant human IL-4 (R&D Systems, cat #204-ILB) was added to the wells to a final concentration of […]. The plate was incubated for 48 h at 37° C. under 5% CO2/95% air. The plate was spun down for 10 minutes at 500×g and 20 μL supernatant was harvested and transferred to a 384 well v-bottom plate using a liquid handler and stored at −20° C. until further analysis. 10 μL supernatant was used to measure the level of Eotaxin-3 (CCL26) using Human Eotaxin-3 MSD kit from Mesocsale (Cat #K251UEK-4). The assay was performed according to the manufacture instructions.
The data from the human whole blood eotaxin-3 assay is shown in FIG. 2 for Examples 3u208, 3u246, 3u118, 3u119, 3u120, and 3u74 (where the effect in % is plotted against the test concentration in M on a log scale).

The structures appear in SMILES notation.

What is called DC50 is the concentration giving 50% degradation. For orientation: EC50 means the midpoint of the concentration-response curve. `CNc1ccn(-c2ccnc3c2cc([C@H](C)N2CCC(c4ccc(C(=O)N5CCC(CN6CCN(Cc7ccc8c(c7)C(C)(C)C(=O)N8[C@H]7CCC(=O)NC7=O)C[C@@H]6C)CC5)cc4)CC2)n3C)c(=O)c1`: the DC50 on STAT6 is 3.4 nM. Further, the EC50 in assay [1] stood at 3.7 nM.

Take `CNc1ccn(-c2ccnc3c2cc([C@H](C)N2CC=C(c4c(C)cc(C(=O)N5CCC(CN6CCN(Cc7cc8c(cc7F)N([C@H]7CCC(=O)NC7=O)C(=O)C8(C)C)C[C@@H]6C)CC5)cc4F)CC2)n3C)c(=O)c1`: the EC50 in assay [1] turned out to be 7 nM.

With `CNc1cc(=O)n(-c2ccnc3c2cc([C@H](C)N2CC=C(c4c(C)cc(C(=O)N(C)c5ccc(N6CCC(O)(Cc7ccc8c(c7)n(C)c(=O)n8C7CCC(=O)NC7=O)CC6)nc5)cc4F)CC2)n3C)cc1F` (stereo partly shown), the 50% degradation concentration (DC50) at STAT6 is 2.7 nM. In addition, the concentration for a half-maximal effect (EC50) in assay [1] turned out to be 1.1 nM.

For the compound `CNc1cc(=O)n(-c2ccnc3c2cc(CN2CC=C(c4c(F)cc(C(=O)N5CCC(CN6CCN(Cc7ccc8c(c7)n(C7CC7)c(=O)n8[C@H]7CCC(=O)NC7=O)C[C@@H]6C)CC5)cc4F)CC2)n3C)cc1F`, on STAT6, the DC50 worked out at 13.7 nM. In assay [1], the EC50 came to 4.5 nM.

With `Cc1cc(C(=O)N2CCC(CN3CCN(Cc4ccc5c(c4)C(C)(C)C(=O)N5[C@H]4CCC(=O)NC4=O)C[C@@H]3C)CC2)cc(F)c1C1=CCN([C@@H](C)c2cc3c(-n4cc(F)c(N)cc4=O)ccnc3n2C)CC1`, on STAT6, the DC50 came to 2.5 nM. The EC50 in assay [1] was 7.5 nM.

`CNc1ccn(-c2ccnc3c2cc([C@H](C)N2CC=C(c4c(C)cc(C(=O)N5CCC(CN6CCN(c7ccc8c(c7)n(C7CC7)c(=O)n8[C@H]7CCC(=O)NC7=O)CC6)CC5)cc4F)CC2)n3C)c(=O)c1` (single isomer, unassigned) [Example 3u279]: the half-maximal degradation concentration (DC50) at STAT6 amounted to 3.1 nM. Also, in assay [1], the 50% effective concentration (EC50) was 3.1 nM.

For the compound `CNc1cc(=O)n(-c2ccnc3c2cc([C@H](C)N2CC=C(c4c(F)cc(C(=O)N5CCC(CN6CCN(Cc7ccc8c(c7)n(C7CC7)c(=O)n8[C@H]7CCC(=O)NC7=O)C[C@@H]6C)CC5)cc4F)CC2)n3C)cc1F`, the half-maximal degradation concentration (DC50) on STAT6 turned out to be 1 nM. Besides, the 50% effective concentration (EC50) in assay [1] was found to be 1.4 nM.
